This note sets out measurements from PubChem BioAssay AID1477 (National Center for Advancing Translational Sciences (NCATS), 2009).

Protein sequences, listed by entry. Tags and fused reporters are not part of them.
UniProt Q01196, whole entry partner: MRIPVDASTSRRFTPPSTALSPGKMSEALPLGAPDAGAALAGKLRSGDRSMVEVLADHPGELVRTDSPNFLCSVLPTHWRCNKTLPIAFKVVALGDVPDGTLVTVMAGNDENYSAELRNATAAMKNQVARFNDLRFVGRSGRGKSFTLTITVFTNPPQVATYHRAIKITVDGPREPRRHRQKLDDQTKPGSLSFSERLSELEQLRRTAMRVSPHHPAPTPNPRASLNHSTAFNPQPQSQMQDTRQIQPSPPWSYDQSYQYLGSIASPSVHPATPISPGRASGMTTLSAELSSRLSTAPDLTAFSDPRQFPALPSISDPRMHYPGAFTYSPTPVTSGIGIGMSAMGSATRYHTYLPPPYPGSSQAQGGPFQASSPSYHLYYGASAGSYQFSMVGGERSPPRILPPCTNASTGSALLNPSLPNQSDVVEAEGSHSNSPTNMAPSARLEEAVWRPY
UniProt Q13951, whole entry: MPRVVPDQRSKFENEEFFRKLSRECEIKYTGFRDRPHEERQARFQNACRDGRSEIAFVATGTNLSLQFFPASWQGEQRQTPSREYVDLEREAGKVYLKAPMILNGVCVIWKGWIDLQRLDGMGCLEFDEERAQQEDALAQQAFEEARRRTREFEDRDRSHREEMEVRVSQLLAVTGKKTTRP

The entries are a selection whose mix differs from that of the whole data set. Some tests of the compounds listed are not included; inactive here does not mean inactive elsewhere. Inconclusive results are not listed. The source made the active and inactive calls. The call rests on the fitted dose curve; in most records, active means well fitted curve in the direction sought with a large enough effect; inconclusive means small, poorly fitted or top-dose-only effect, or effect the other way, or another doubt; inactive means no such curve, though single readings can be large or run the other way.

For this assay, the target named is Runt-related transcription factor 1 (Homo sapiens) + Core-binding factor subunit beta (Homo sapiens) (UniProt Q01196+Q13951). Put plainly: qHTS Assay for Compounds Blocking the Interaction Between CBF-beta and RUNX1 for the Treatment of Acute Myeloid Leukemia. Further: % of control where 0% means no effect. To be noted: AlphaScreen CBFb-His/RUNX1-biotin binding, biochemical; at 59.8 µM (top of the series).
For `COc1ccc(Br)c(C(=O)NCC2(N3CCCCC3)CCCCC2)c1`, the activity, negative = inhibition is inactive: 1.08%. Take `CN(C)c1cccc(C(=O)NCC2(N(C)C)CCCCC2)c1`: the activity, negative = inhibition was inactive: -16.4%. For `O=C(OC1CN2CCC1CC2)C(CO)(c1ccccc1)c1ccccc1` (stereo unspecified), the activity, negative = inhibition was inactive: 6.85%. For `COc1cccc(C(=O)NCC2(N3CCCCC3)CCCCC2)c1` the value was inactive: -2.27%; for `C=CCN1CCN(CCOC(=O)C(O)(c2ccccc2)c2ccccc2)CC1`, inactive: -5.62%.

Take `CCN1CCCC(OC(=O)C2(O)c3ccccc3C=Cc3ccccc32)C1` (stereo unspecified): the activity, negative = inhibition was inactive: 0.724%.

For `CN(C)C1CCCC1OC(=O)C(O)(c1ccccc1)c1ccccc1` (stereo unspecified), the activity, negative = inhibition is inactive: -0.283%. The value for `Cc1ccccc1C(=O)NCC1(N2CCCCC2)CCCCC1` was inactive: 10.8%; that for `CCN(CC)CC(C)C(C)OC(=O)C(O)(c1ccccc1)c1ccccc1` (stereo unspecified) was inactive: 8.92%; that for `CC(C)N1C(=O)CC2(CCN(CCOC(=O)C(O)(c3ccccc3)c3ccccc3)CC2)C1=O` was inactive: 3.87%. Take `O=C(NCC1(N2CCCCC2)CCCCC1)c1cc([N+](=O)[O-])ccc1Cl`: the activity, negative = inhibition was inactive: 2.58%.
